Experiment: Pharmacokinetic characteristics study in mice (plasma, LC-MS/MS)
Conditions: C57BL/6 male mice; for Bioavailability: intragastric vs intravenous administration; for Exposure: plasma, intravenous or oral (intragastric) administration
Procedure: Experimental Example 2: Pharmacokinetic Characteristics Study
C57BL/6 male mice were used in this study. The drug concentration in the plasma of mice subjected to intravenous or oral administration of the test compound at different time points were quantitatively determine by LC/MS/MS method, respectively, in order to evaluate the pharmacokinetic characteristics of the tested drugs in mice.
A clear solution of the test compound was injected into C57BL/6 mice via the tail vein (overnight fasting, 7-10 weeks old), and the test compound was intragastrically administered to C57BL/6 mice (overnight fasting, 7-10 weeks old). 30 μL of the blood was collected from the jugular vein or the tail vein of the animals 0.0833, 0.25, 0.5, 1, 2, 4, 6, 8 and 24 hours after administration, and placed in the anticoagulant tube containing EDTA-K2, followed by centrifugation at 4° C. for 15 minutes to collect the plasma. The plasma concentration was determined by LC-MS/MS. The pharmacokinetic parameters were calculated by the non-compartment model linear logarithmic trapezoidal method using WinNonlin™ Version 6.3 (Pharsight, Mountain View, Calif.) pharmacokinetic software.

SMILES | Bioavailability [%] | Exposure [µM·h]
Cc1cc(F)c(C(=O)Nc2cccc(-c3nnc4n3CCC[C@H]4O)n2)cc1-n1cnc(C2CC2)c1 | 102 | 53.367
Cc1cc(F)c(C(=O)Nc2cccc(-c3nnc4n3CCC[C@@H]4O)n2)cc1-n1cnc(C2CC2)c1 | 165 | 59.396
